US5084454A, “2-(piperidinylmethyl)-4-phenyl-2,3-dihydro-4H-1,4-benzoxazines useful as antipsychotics” (Farmitalia Carlo Erba S.r.l., priority 1988, dated 1992)
Like-named read-outs stand apart in the source and are kept apart here.

Legend:
[1] = system: cataleptic activity in the mouse; conditions: in vivo, po; for ED50 Catalepsy: 6 h
[2] = system: apomorphine-induced climbing behaviour in mice; experiment: antagonism of apomorphine-induced climbing behaviour in mice; assay type: in vivo, mouse; conditions: for ED50 Climbing: oral; for ED50: Mus musculus, po
Experimental: The activity of the compounds of the present invention on the central nervous system was also evaluated by following for instance the technique of Protais P. et al. (Psychopharmacology, 50, 1 (1976).
The toxicity of the compounds of the invention is negligible, therefore they can be safely used in therapy. Nine hours food deprived mice were treated orally with single administration of increasing doses, then housed and normally fed. The orientative acute toxicity (LD50) was assessed on the seventh day after the treatment and resulted, in general, higher than 600 mg/kg. Following Table 2 summarizes the biological data obtained according to the above mentioned tests for some compounds of the present invention; Haloperidol has been evaluated in the same tests for comparative purposes.

[3] = biological target: T1, D1 dopamine receptor (Rattus norvegicus, UniProt P18901); experiment: D1 dopamine receptor binding affinity, [3H]cis-Flupenthixol; conditions: read-out: IC50 D1 [3H]cisFlu.
T1 construct: from tissue

[4] = biological target: T2, D2 dopamine receptor (Rattus norvegicus, UniProt P61169); experiment: D2 dopamine receptor binding affinity, [3H]Spiperone
T2 construct: from tissue

[5] = biological target: T3, 5HT2 serotonine receptor (Rattus norvegicus, UniProt P14842); experiment: 5HT2 serotonine receptor binding affinity, [3H]Ketanserine; conditions: read-out: IC50 5HT2 [3H]Ket.
T3 construct: from tissue
Experimental: The activity of the compounds of the present invention was evaluated for example in a series of receptorial binding affinity tests.
J. Pharmacol. 1977, 46, 377; Hyttel, J. Life Sci. 1981, 28, 563; Pedigo et al. Journal of Neurochemistry, 1981, 36, 220; Leysen et al. Molecular Pharmacology, 1981, 21, 301; Battaglia et al. Life Science, 1983, 33, 2011; Greengrass P., Brener R. Eur. J. Pharmacol., 1979, 55, 323; and Perry B. D., U'Prichard D. C. Eur. J. Pharmacol. 1981, 76, 461]
In the table cis-Flu. means cis-Flupenthixol; Spip. means Spiperone; Serot. means Serotonin; Ket. means Ketanserine; Praz. means Prazosin and Yohim. means Yohimbine, respectively. The above internal FCE codes refer to the following compounds

[6] = in vivo; conditions: mouse, po
[7] = in vivo; conditions: mouse, po, ED50 Catalepsy
[8] = system: mice; conditions: datum given according to Il Farmaco Ed. Sc. 1976, 31, 442; 10080 min; cited from earlier work

Row | SMILES | ED50 Catalepsy [1] | ED50 Climbing [2] | IC50 [3] | IC50 ([4]; IC50 D2 [3H]Spip.) | IC50 [5] | (ED50 Catalepsy / ED50 Climbing) [1] | LD50 at 168 h [6] | IC50 ([4]; read-out: IC50 D2 [3H]Spip.) | ED50 [2] | ED50 at 6 h [7] | LD50 [8]
1 | O=C1NCN(c2ccccc2)C12CCN(CC1CN(c3ccccc3)c3ccccc3O1)CC2 (single isomer, unassigned; (+)) [FCE 25895, (+) 2-(1-phenyl-1,3,8-triazaspiro[4,5]decan-4-one-8-yl)-methyl-4-phenyl-2,3-dihydro-4H-1,4-benzoxazine] | 61 mg/kg | 3.8 mg/kg/os | 1200 nM | 5 nM | 6 nM |  |  |  |  |  | 
2 | O=C1NCN(c2ccccc2)C12CCN(CC1CN(c3ccccc3)c3ccccc3O1)CC2 (single isomer, unassigned; (-)) [FCE 25896, (-) 2-(1-phenyl-1,3,8-triazaspiro[4,5]decan-4-one-8-yl)-methyl-4-phenyl-2,3-dihydro-4H-1,4-benzoxazine] | 22.7 mg/kg | 1.8 mg/kg/os | > 10000 nM |  | 80 nM | 12.6 | > 800 mg/kg | 200 nM |  |  | 
3 | O=C1NCN(c2ccccc2)C12CCN(CC1CN(c3ccccc3)c3ccccc3O1)CC2 (centres unmarked) [FCE 24867, 2-(1-phenyl-1,3,8-triazaspiro[4,5]decan-4-one-8-yl)-methyl-4-phenyl-2,3-dihydro-4H-1,4-benzoxazine] |  |  | 1400 nM | 8 nM | 40 nM |  |  |  | 4.5 mg/kg | 30.8 mg/kg | 
4 | O=C1NCN(c2ccccc2)C12CCN(CC1CN(c3ccc(F)cc3)c3ccc(F)cc3O1)CC2 (centres unmarked) [FCE 25452, 2-(1-phenyl-1,3,8-triazaspiro[4,5]decan-4-one-8-yl)-methyl-4-(4-fluorophenyl)-7-fluoro-2,3-dihydro-4H-1,4-benzoxazine] |  |  | 900 nM | 9 nM | 20 nM |  |  |  |  |  | 
5 | OC1(c2cccc(C(F)(F)F)c2)CCN(CC2CN(c3ccccc3)c3ccccc3O2)CC1 (centres unmarked) [FCE 25456, 2-[4-(3-trifluoromethyl-phenyl)-4-hydroxy-piperidin-1-yl]-methyl-4-phenyl-2,3-dihydro-4H-1,4-benzoxazine] |  |  | > 10000 nM | 1 nM | 100 nM | 8 | > 800 mg/kg |  | 2.5 mg/kg | 20 mg/kg | 
6 | O=C1NCN(c2ccccc2)C12CCN(CC1CN(c3ccc(F)cc3)c3ccccc3O1)CC2 (centres unmarked) [FCE 25676, 2-(1-phenyl-1,3,8-triazaspiro[4,5]decan-4-one-8-yl)-methyl-4-(4-fluorophenyl)-2,3-dihydro-4H-1,4-benzoxazine] |  |  | 1000 nM | 2 nM | 20 nM |  |  |  | 4.9 mg/kg | 75 mg/kg | 
7 | O=C1NCN(c2ccccc2)C12CCN(CC1CN(c3ccccc3)c3ccc(F)cc3O1)CC2 (centres unmarked) [FCE 25848, 2-(1-phenyl-1,3,8-triazaspiro[4,5]decan-4-one-8-yl)-methyl-4-phenyl-7-fluoro-2,3-dihydro-4H-1,4-benzoxazine] |  |  | 2400 nM | 40 nM | 30 nM |  |  |  |  |  | 
8 | O=C(CCCN1CCC(O)(c2ccc(Cl)cc2)CC1)c1ccc(F)cc1 [Haloperidol, reference compound] |  |  |  |  |  |  |  |  | 0.5 mg/kg | 2.2 mg/kg | 71 mg/kg/os
